1 substance from patent US20050100561A1, “Use of topical compositions for the control of microbial diseases of the nail” (priority 2002, published 2005) can be followed below.

The series relates to onychomycosis. In words: Treatment of onychomycosis with topical copper silicate (cream or solution), patient trial. On the procedure: Subjects, not already receiving anti-fungal treatment, were assessed for clinical diagnosis of onychomycosis and photographs and nail clippings were taken. Those testing positive for onychomycosis were admitted to the trial.
The anti-fungal composition (cream or solution) was applied to the infected nail twice daily for the duration of the treatment.
Estimates of the nail area involved were made during clinical visits and photographs were taken. Nail clippings were collected for KOH and dermatophyte culture. […] Results
The results presented hereunder are interim results of a 12 month study. Patients entered the trial and commenced their treatment at different dates. […] Patients were assessed at 0 (commencement). 6 weeks and 12 weeks.

copper silicate: the Adverse reactions result reads like this: (continued trial, 26 weeks treatment and 26 weeks post-treatment) “No adverse reactions have been reported”; (interim results, up to 12 weeks of treatment) “No adverse reactions were reported”.
